# Data: patent US5686495A, “Substituted hydrazinedicarboximidamides and methods of use thereof” (Cambridge NeuroScience, Inc., priority 1995, dated 1997)
# Test system: 3H-glutamate release from rat brain synaptosomes
# Test: Inhibition of K+-evoked 3H-glutamate release from synaptosomes (rapid superfusion)
# Format: cell-based
# Details: 100 μM; Control = 100; K+ depolarization
# Protocol: To study the release of presynaptic ^3 H-glutamate, synaptosomes from young rats were used. CD Male rats of 4 to 6 weeks (50-75 g) were used for the preparation of synaptosomes. Rats were killed by decapitation with guillotine and the skull bone was opened in the center with the pointed blade of dissection scissors. The bone is then peeled away with a bone cutter and the brain is pried with a micro spatula. The cerebellum is removed and the rest of the brain is placed in 35 ml of 0.32M Sucrose solution and homogenized in a Thomas glass teflon homogenizer C at the maximum power setting (about 450 rpm) with 16 strokes. The pestle is rinsed with 5 ml of sucrose solution and added to the homogenate. The homogenate is centrifuged for 10 min at 3500 rpm (1500 g) in a SS-34 rotor in Sorvall RC-5B. The resulting pellet (P1) is discarded and the supernatant (S1) is recentrifuged for 20 min at 8700 rpm (8500 g). The supernatant (S2) is discarded and the pellet (P2) is resuspended in 5 ml of 0.32M sucrose and hand homogenized with 4 strokes (Thomas C) and the volume was made up to 8 ml. This homogenate was layered on 20 ml of 0.8M sucrose solution in two centrifuge tubes and spun for 25 minutes at 8700 rpm (8500 g). At the end of this spin, most of the myelin stays at the interphase of 0.32M and 0.8M sucrose and mitochondria pellet as a brown pellet. […]
substance,measurement,value
"N,N-di-(3-methylphenyl)guanidine",relative level of glutamate release,106
